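96-well plates; 48 h exposure; 5 concentrations. Endpoints by linear interpolation between flanking doses. Not reached: highest tested concentration assigned. The concentration for 50% growth inhibition is given as GI50. TGI denotes the concentration required for complete inhibition of growth.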
Assays:
Assay in all cases: NCI-60 cell line screen, 48 h
786-0 renal = test system: 786-0 renal
A498 renal = test system: A498 renal
A549 NSCLC = test system: A549 NSCLC
ACHN renal = test system: ACHN renal
BT-549 breast = test system: BT-549 breast
CAKI-1 renal = test system: CAKI-1 renal
CCRF-CEM leukemia = test system: CCRF-CEM leukemia
COLO 205 colon = test system: COLO 205 colon
DU-145 prostate = test system: DU-145 prostate
EKVX NSCLC = test system: EKVX NSCLC
HCC-2998 colon = test system: HCC-2998 colon
HCT-116 colon = test system: HCT-116 colon
HCT-15 colon = test system: HCT-15 colon
HL-60(TB) leukemia = test system: HL-60(TB) leukemia
HOP-62 NSCLC = test system: HOP-62 NSCLC
HOP-92 NSCLC = test system: HOP-92 NSCLC
HS 578T breast = test system: HS 578T breast
HT29 colon = test system: HT29 colon
IGROV1 ovarian = test system: IGROV1 ovarian
K-562 leukemia = test system: K-562 leukemia
KM12 colon = test system: KM12 colon
LOX IMVI melanoma = test system: LOX IMVI melanoma
M14 melanoma = test system: M14 melanoma
MALME-3M melanoma = test system: MALME-3M melanoma
MCF7 breast = test system: MCF7 breast
MDA-MB-231 breast = test system: MDA-MB-231 breast
MDA-MB-435 = test system: MDA-MB-435
MDA-N = test system: MDA-N
MOLT-4 leukemia = test system: MOLT-4 leukemia
NCI-H226 lung = test system: NCI-H226 lung
NCI-H23 lung = test system: NCI-H23 lung
NCI-H322M lung = test system: NCI-H322M lung
NCI-H460 lung = test system: NCI-H460 lung
NCI-H522 lung = test system: NCI-H522 lung
NCI/ADR-RES ovarian = test system: NCI/ADR-RES ovarian
OVCAR-3 ovarian = test system: OVCAR-3 ovarian
OVCAR-4 ovarian = test system: OVCAR-4 ovarian
OVCAR-5 ovarian = test system: OVCAR-5 ovarian
OVCAR-8 ovarian = test system: OVCAR-8 ovarian
PC-3 prostate = test system: PC-3 prostate
RPMI-8226 leukemia = test system: RPMI-8226 leukemia
RXF 393 renal = test system: RXF 393 renal
SF-268 CNS = test system: SF-268 CNS
SF-295 CNS = test system: SF-295 CNS
SF-539 CNS = test system: SF-539 CNS
SK-MEL-2 melanoma = test system: SK-MEL-2 melanoma
SK-MEL-28 melanoma = test system: SK-MEL-28 melanoma
SK-MEL-5 melanoma = test system: SK-MEL-5 melanoma
SK-OV-3 ovarian = test system: SK-OV-3 ovarian
SN12C renal = test system: SN12C renal
SNB-19 CNS = test system: SNB-19 CNS
SNB-75 CNS = test system: SNB-75 CNS
SR leukemia = test system: SR leukemia
SW-620 colon = test system: SW-620 colon
T-47D breast = test system: T-47D breast
TK-10 renal = test system: TK-10 renal
U251 CNS = test system: U251 CNS
UACC-257 melanoma = test system: UACC-257 melanoma
UACC-62 melanoma = test system: UACC-62 melanoma
UO-31 renal = test system: UO-31 renal

## CN(C(=O)Cc1ccc(Br)c(Br)c1N)[C@H]1CCCC[C@@H]1N1CCCC1
786-0 renal
  TGI: 38.7 µM
A498 renal
  TGI: 30.5 µM
A549 NSCLC
  TGI: 51 µM
ACHN renal
  TGI: 42.1 µM
BT-549 breast
  TGI: 32 µM
CAKI-1 renal
  TGI: 26.9 µM
CCRF-CEM leukemia
  TGI: 25.5 µM
COLO 205 colon
  TGI: 26.7 µM
DU-145 prostate
  TGI: 37 µM
EKVX NSCLC
  TGI: 53.1 µM
HCC-2998 colon
  TGI: 29.5 µM
HCT-116 colon
  TGI: 37.1 µM
HCT-15 colon
  TGI: 73.9 µM
HL-60(TB) leukemia
  TGI: 34.6 µM
HOP-62 NSCLC
  TGI: 28.4 µM
HOP-92 NSCLC
  TGI: 32.5 µM
HS 578T breast
  TGI: 64.3 µM
HT29 colon
  TGI: 49.7 µM
IGROV1 ovarian
  TGI: 29.7 µM
K-562 leukemia
  TGI: 33.9 µM
KM12 colon
  TGI: 26.3 µM
LOX IMVI melanoma
  TGI: 28.6 µM
M14 melanoma
  TGI: 28.9 µM
MALME-3M melanoma
  TGI: 33.7 µM
MCF7 breast
  TGI: 30.8 µM
MDA-MB-231 breast
  TGI: 29.5 µM
MDA-MB-435
  TGI: 26.1 µM
MDA-N
  TGI: 40.8 µM
MOLT-4 leukemia
  TGI: 30.5 µM
NCI-H226 lung
  TGI: 40.8 µM
NCI-H23 lung
  TGI: 36.9 µM
NCI-H322M lung
  TGI: 71.1 µM
NCI-H460 lung
  TGI: 30.9 µM
NCI-H522 lung
  TGI: 31.1 µM
NCI/ADR-RES ovarian
  TGI: 37.5 µM
OVCAR-3 ovarian
  TGI: 46.3 µM
OVCAR-4 ovarian
  TGI: 46.5 µM
OVCAR-5 ovarian
  TGI: 39.5 µM
OVCAR-8 ovarian
  TGI: 35.8 µM
PC-3 prostate
  TGI: 42.6 µM
RPMI-8226 leukemia
  TGI: 32.3 µM
RXF 393 renal
  TGI: 29.5 µM
SF-268 CNS
  TGI: > 100 µM
SF-295 CNS
  TGI: 35 µM
SF-539 CNS
  TGI: 34.9 µM
SK-MEL-2 melanoma
  TGI: 37 µM
SK-MEL-28 melanoma
  TGI: 28.9 µM
SK-MEL-5 melanoma
  TGI: 30.8 µM
SK-OV-3 ovarian
  TGI: 42.6 µM
SN12C renal
  TGI: > 100 µM
SNB-19 CNS
  TGI: 55.8 µM
SNB-75 CNS
  TGI: 23.1 µM
SR leukemia
  TGI: 33 µM
SW-620 colon
  TGI: 40.2 µM
T-47D breast
  TGI: 34.3 µM
TK-10 renal
  TGI: 34.8 µM
U251 CNS
  TGI: 37.1 µM
UACC-257 melanoma
  TGI: 36 µM
UACC-62 melanoma
  TGI: 31.8 µM
UO-31 renal
  TGI: 30.7 µM

## O=P1(Oc2ccccc2)Cc2cnccc2CN1 (stereo unspecified)
786-0 renal
  GI50: > 100 µM
  TGI: > 100 µM
A498 renal
  GI50: > 100 µM
  TGI: > 100 µM
A549 NSCLC
  GI50: > 100 µM
  TGI: > 100 µM
ACHN renal
  GI50: > 100 µM
  TGI: > 100 µM
BT-549 breast
  GI50: > 100 µM
  TGI: > 100 µM
CAKI-1 renal
  GI50: > 100 µM
  TGI: > 100 µM
CCRF-CEM leukemia
  GI50: > 100 µM
  TGI: > 100 µM
COLO 205 colon
  GI50: > 100 µM
  TGI: > 100 µM
DU-145 prostate
  GI50: > 100 µM
  TGI: > 100 µM
EKVX NSCLC
  GI50: > 100 µM
  TGI: > 100 µM
HCC-2998 colon
  GI50: > 100 µM
  TGI: > 100 µM
HCT-116 colon
  GI50: > 100 µM
  TGI: > 100 µM
HCT-15 colon
  GI50: > 100 µM
  TGI: > 100 µM
HOP-62 NSCLC
  GI50: > 100 µM
  TGI: > 100 µM
HOP-92 NSCLC
  GI50: > 100 µM
  TGI: > 100 µM
HT29 colon
  GI50: > 100 µM
  TGI: > 100 µM
IGROV1 ovarian
  GI50: > 100 µM
  TGI: > 100 µM
K-562 leukemia
  GI50: > 100 µM
  TGI: > 100 µM
KM12 colon
  GI50: > 100 µM
  TGI: > 100 µM
LOX IMVI melanoma
  GI50: > 100 µM
  TGI: > 100 µM
M14 melanoma
  GI50: > 100 µM
  TGI: > 100 µM
MCF7 breast
  GI50: > 100 µM
  TGI: > 100 µM
MDA-MB-231 breast
  GI50: > 100 µM
  TGI: > 100 µM
MDA-MB-435
  GI50: > 100 µM
  TGI: > 100 µM
MDA-N
  GI50: > 100 µM
  TGI: > 100 µM
MOLT-4 leukemia
  GI50: > 100 µM
  TGI: > 100 µM
NCI-H226 lung
  GI50: > 100 µM
  TGI: > 100 µM
NCI-H23 lung
  GI50: > 100 µM
  TGI: > 100 µM
NCI-H322M lung
  GI50: > 100 µM
  TGI: > 100 µM
NCI-H460 lung
  GI50: > 100 µM
  TGI: > 100 µM
NCI/ADR-RES ovarian
  GI50: > 100 µM
  TGI: > 100 µM
OVCAR-3 ovarian
  GI50: > 100 µM
  TGI: > 100 µM
OVCAR-4 ovarian
  GI50: > 100 µM
  TGI: > 100 µM
OVCAR-5 ovarian
  GI50: > 100 µM
  TGI: > 100 µM
OVCAR-8 ovarian
  GI50: > 100 µM
  TGI: > 100 µM
PC-3 prostate
  GI50: > 100 µM
  TGI: > 100 µM
RPMI-8226 leukemia
  GI50: > 100 µM
  TGI: > 100 µM
RXF 393 renal
  GI50: > 100 µM
  TGI: > 100 µM
SF-295 CNS
  GI50: > 100 µM
  TGI: > 100 µM
SF-539 CNS
  GI50: > 100 µM
  TGI: > 100 µM
SK-MEL-2 melanoma
  GI50: > 100 µM
  TGI: > 100 µM
SK-MEL-28 melanoma
  GI50: > 100 µM
  TGI: > 100 µM
SK-MEL-5 melanoma
  GI50: > 100 µM
  TGI: > 100 µM
SN12C renal
  GI50: > 100 µM
  TGI: > 100 µM
SNB-19 CNS
  GI50: > 100 µM
  TGI: > 100 µM
SNB-75 CNS
  GI50: > 100 µM
  TGI: > 100 µM
SR leukemia
  GI50: > 100 µM
  TGI: > 100 µM
SW-620 colon
  GI50: > 100 µM
  TGI: > 100 µM
T-47D breast
  GI50: > 100 µM
  TGI: > 100 µM
U251 CNS
  GI50: > 100 µM
  TGI: > 100 µM
UACC-257 melanoma
  GI50: > 100 µM
  TGI: > 100 µM
UACC-62 melanoma
  GI50: > 100 µM
  TGI: > 100 µM
UO-31 renal
  GI50: > 100 µM
  TGI: > 100 µM
